Laboratory results taken from publication PMC2577625 (2008).

T1: gp100 peptide on HLA-A*02:01 (human)
T1 peptide: KTWGQYWQV


Molecular target: T1, gp100 peptide on HLA-A*02:01
Assay: cytokine release

| binding result | Binder |
| --- | --- |
| recognises | Patient 7 clone (TCR) alpha TRAV5 CDR3: AENPEGNDMR beta TRBV11.2 CDR3: ASSPGGGGEQF |
| recognises | Patient 2 clone (TCR) alpha TRAV12.1 CDR3: VVNMNSNYQLI beta TRBV15 CDR3: ATSQEASFTDTQY |
| recognises | Patient 5 clone (TCR) alpha TRAV8.1 CDR3: AVNGDDKII beta TRBV7.6 CDR3: ASSLGGGQDTQY |
